{
  "source": "patent US20260034236A1",
  "about": "“NEW DRUG COMPLEX” (KOWA COMPANY, LTD., priority 2022, published 2026)",
  "tested_on": "EGFR antigen-negative human breast cancer cell line MDA-MB-453",
  "assay": "Cytotoxic test (CellTiter-Glo), EGFR antigen-negative cells",
  "assay_type": "cell-based",
  "settings": "no fraction (—), 4 days culture",
  "description": "An EGFR antigen-positive human breast cancer cell line MDA-MB-468 (American Type Culture Collection) and an EGFR antigen-negative human breast cancer cell line MDA-MB-453 (RIKEN BRC CELL BANK) were adjusted to a cell concentration of 2.0×10^4 cells/mL and 4.0×10^4 cells/mL with the RPMI1640 medium, respectively, and 100 μL each was added to a 96-well microplate for cell culture and cultured overnight. On the next day, 100 μL of the evaluation specimen diluted with the RPMI medium was separately added to the microplate, and the cells were cultured for 4 days at 37° C. under 5% CO2. After the culturing, CellTiter-Glo™ Luminescent Cell Viability Assay (Promega Corporation) was added to the microplate, and the mixture was stirred and left to stand at room temperature for 10 minutes. The light emission amount was then measured with a plate reader (Molecular Devices, LLC.). The cell viability was calculated by the following equation.\nIn the equation, a represents an average value (n=3) of light emission amounts of sample wells, and b represents an average value (n=3) of light emission amounts of sample non-added wells.\nAn IC50 value, which is an agent concentration at which the cell viability is 50%, was calculated with SAS™ 9.4 Software (SAS Institute Japan Ltd.).",
  "data": [
    {"substance": "Cetuximab [Comparative Example 2, reference compound]", "values": [
      {"measurement": "IC50", "result": "> 66", "unit": "nM"}
    ]}
  ]
}
